Target: HSP90α (Homo sapiens, UniProt P07900)
Assay: HSP90 binding assay (fluorescent ELISA, competition with biotinylated Geldanamycin)

C=CCNC1=C2C[C@@H](C)C[C@H](OC)[C@H](O)[C@@H](C)/C=C(\C)[C@H](OC(N)=O)[C@@H](OC)/C=C\C=C(/C)C(=O)NC(=CC1=O)C2=O [Compound 17-AAG, 17-Allylamino-17-demethoxygeldanamycin, reference compound]
inhibition in the HSP90 binding assay (validation with known inhibitors): appropriate rank order of inhibition

— patent publication US7932279B2 (ArQule, Inc., priority 2007, dated 2011)
